Sequences of proteins named here, by UniProt entry; tags and fusion partners are left off. Residues count along the entry.
UniProt C7C422, 29-270 limits assumed: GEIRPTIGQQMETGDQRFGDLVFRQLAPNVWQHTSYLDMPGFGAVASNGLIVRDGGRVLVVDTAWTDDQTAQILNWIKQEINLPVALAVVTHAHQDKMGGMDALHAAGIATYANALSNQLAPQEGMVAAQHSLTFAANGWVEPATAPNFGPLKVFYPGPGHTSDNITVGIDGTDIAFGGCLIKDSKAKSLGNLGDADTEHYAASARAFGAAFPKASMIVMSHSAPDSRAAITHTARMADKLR
UniProt C7C422, 29-270 V88L/M154L: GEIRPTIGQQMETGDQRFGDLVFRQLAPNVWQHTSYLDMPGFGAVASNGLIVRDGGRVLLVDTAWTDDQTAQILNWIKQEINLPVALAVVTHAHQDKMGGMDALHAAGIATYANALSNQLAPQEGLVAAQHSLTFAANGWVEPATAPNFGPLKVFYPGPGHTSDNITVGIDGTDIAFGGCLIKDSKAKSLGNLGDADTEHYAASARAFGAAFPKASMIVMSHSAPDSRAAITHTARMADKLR

In patent publication US20250205259A1, “CLASS OF 7-((FIVE-MEMBERED HETEROCYCLIC)METHYL)-8-CARBOXYLIC ACID-BENZO CYCLIC BORATE DERIVATIVES AND USES THEREOF” (priority 2022, published 2025):

How the values were obtained:
NDM-1 = NDM-1 (Klebsiella pneumoniae, UniProt C7C422); assay: Inhibitory activity on MBL, fluorescent substrate FC-5; format: biochemical; details: read-out: Inhibitory activity on MBL NDM-1 (IC50 class)
NDM-5 = NDM-5 (Klebsiella pneumoniae, UniProt C7C422, M154L/V88L); assay: as above; format: biochemical; details: read-out: Inhibitory activity on MBL NDM-5 (IC50 class)
AmpC = AmpC (UniProt P24735); assay: Inhibitory activity on SBL, fluorescent substrate FC-5; details: read-out: Inhibitory activity on SBL AmpC (IC50 class)

Structure (SMILES): O=C(O)c1c(Cn2ncc3c2CNC3)ccc2c1OB(O)CC2 [Compound 66]
- IC50 (NDM-1): 10 to 1000 nM
- IC50 (NDM-5): 1000 to 100000 nM
- IC50 (AmpC): > 100000 nM
